Test results from US10919859B2, “Benzylaminopyridylcyclopropanecarboxylic acids, pharmaceutical compositions and uses thereof” (Boehringer Ingelheim International GmbH, priority 2017, dated 2021).

Amino acid sequences for entries named in this document (tags omitted).
UniProt O14842, whole entry: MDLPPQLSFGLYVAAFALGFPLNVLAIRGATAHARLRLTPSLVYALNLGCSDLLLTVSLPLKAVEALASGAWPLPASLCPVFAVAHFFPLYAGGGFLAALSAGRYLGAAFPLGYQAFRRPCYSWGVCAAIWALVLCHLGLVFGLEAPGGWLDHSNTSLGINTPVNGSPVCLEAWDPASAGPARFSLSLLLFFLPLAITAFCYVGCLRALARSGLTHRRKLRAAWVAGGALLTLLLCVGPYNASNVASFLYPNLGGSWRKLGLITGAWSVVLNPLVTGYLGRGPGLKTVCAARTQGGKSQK

Target: human GPR40 receptor (Homo sapiens (Human), UniProt O14842)
Test: IP1 accumulation measurements using the IPOne assay system
Conditions: 1321N1 cells stably expressing human GPR40, 1 h at 37° C.
Experimental: IP1 accumulation measurements using the IPOne assay system—1321N1 cells stably expressing human GPR40 receptor (Euroscreen, Belgium) are seeded 24 h before the assay in white 384-well plates in culture medium containing 10% FCS, 1% Na-Pyruvate and 400 μg/mL G418. IP1 is assayed according to the manufacturer's description (Cisbio Bioassays, France). In brief, the assay is started by substitution of the culture medium by stimulation buffer (Hepes 10 mM, CaCl2 1 mM, MgCl2 0.5 mM, KCl 4.2 mM, NaCl 146 mM, glucose 5.5 mM and LiCl 50 mM, pH 7.4). Cells are stimulated for 1 h at 37° C., 5% CO2 by addition of the compounds that are diluted in stimulation buffer containing LiCl. Assays are stopped by adding HTRF-conjugates (IP1-d2 and Anti-IP1 cryptate Tb) and lysis buffer, provided by the manufacturer. After an incubation time of 1 h at room temperature plates are measured using an EnVision™, Perkin Elmer. The obtained fluorescence ratios at 665/615 […] are then used to calculate the pEC50 values using Assay Explorer 3.3 Software (Accelrys, Inc.) by interpolation using an IP1 reference curve and subsequent sigmoidal curve fitting allowing for a variable hill slope.

Cc1nc(-c2ccc(-c3ccc(F)c(CNc4ccc([C@@H]5C[C@H]5C(=O)O)nc4)c3)cc2)cs1
EC50: 219 nM
